# Laboratory results from article PMC6290062, “Characterization of a Novel, Cold-Adapted, and Thermostable Laccase-Like Enzyme With High Tolerance for Organic Solvents and Salt and Potent Dye Decolorization Ability, Derived From a Marine Metagenomic Library” (Frontiers in Microbiology, 2018).
# Test system: CCn1c(=NN=c2sc3cc(S(=O)(=O)O)ccc3n2CC)sc2cc(S(=O)(=O)O)ccc21
# Assay: purified protein
# Details: 0.04 M Britton-Robinson buffer, pH 7.0, 60°C
substance,measurement,value
Lac1326 (uncultured bacterium),Km,210 µM
same,kcat,34.4 s⁻¹
same,kcat/Km,160000 M⁻¹ s⁻¹
